# Values joined by “and” are separate entries in the source; they are usually repeats but may differ in a detail not shown here. Equal entries are not always repeated. The entries are a selection whose mix differs from that of the whole data set. Results filed as inconclusive are left out. Where a structure was tested more than once in an assay, its records may differ in their call. Active and inactive are the calls of the source. The calls were made as follows, unless noted: active = hit-call score of the fitted dose curve at least 0.9, where 1 is the maximum; inconclusive = response in the unintended direction; inactive = score below 0.9.
# Amino acid sequences for entries named in this document (tags omitted). A change or cut given only in a name is not applied to a line headed by its entry.
# UniProt Q92851: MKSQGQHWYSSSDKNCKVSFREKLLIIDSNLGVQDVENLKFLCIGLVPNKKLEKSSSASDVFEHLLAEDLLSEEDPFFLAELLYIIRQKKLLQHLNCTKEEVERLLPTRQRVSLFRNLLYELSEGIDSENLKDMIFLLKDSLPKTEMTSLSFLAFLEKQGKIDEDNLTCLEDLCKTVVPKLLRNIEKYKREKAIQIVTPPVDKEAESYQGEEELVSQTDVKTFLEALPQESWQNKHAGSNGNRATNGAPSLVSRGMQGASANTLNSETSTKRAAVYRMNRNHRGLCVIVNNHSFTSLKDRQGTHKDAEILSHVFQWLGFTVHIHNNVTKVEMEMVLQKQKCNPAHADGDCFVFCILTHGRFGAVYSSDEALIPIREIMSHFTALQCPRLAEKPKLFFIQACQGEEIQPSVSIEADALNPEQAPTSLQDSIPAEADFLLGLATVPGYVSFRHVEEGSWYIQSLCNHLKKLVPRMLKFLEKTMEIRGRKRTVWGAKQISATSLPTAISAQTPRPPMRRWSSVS
# UniProt O14965: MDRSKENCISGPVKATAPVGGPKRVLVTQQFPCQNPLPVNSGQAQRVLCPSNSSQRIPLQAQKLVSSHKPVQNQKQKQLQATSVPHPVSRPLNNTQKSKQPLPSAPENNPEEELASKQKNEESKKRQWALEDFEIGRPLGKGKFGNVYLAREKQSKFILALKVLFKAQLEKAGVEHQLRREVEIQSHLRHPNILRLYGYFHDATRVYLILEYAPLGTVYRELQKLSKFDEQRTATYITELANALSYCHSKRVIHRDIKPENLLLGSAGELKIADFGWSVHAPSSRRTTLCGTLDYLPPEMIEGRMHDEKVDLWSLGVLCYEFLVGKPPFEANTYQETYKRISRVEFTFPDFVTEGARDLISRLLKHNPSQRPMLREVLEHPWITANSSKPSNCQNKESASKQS
# UniProt Q14790: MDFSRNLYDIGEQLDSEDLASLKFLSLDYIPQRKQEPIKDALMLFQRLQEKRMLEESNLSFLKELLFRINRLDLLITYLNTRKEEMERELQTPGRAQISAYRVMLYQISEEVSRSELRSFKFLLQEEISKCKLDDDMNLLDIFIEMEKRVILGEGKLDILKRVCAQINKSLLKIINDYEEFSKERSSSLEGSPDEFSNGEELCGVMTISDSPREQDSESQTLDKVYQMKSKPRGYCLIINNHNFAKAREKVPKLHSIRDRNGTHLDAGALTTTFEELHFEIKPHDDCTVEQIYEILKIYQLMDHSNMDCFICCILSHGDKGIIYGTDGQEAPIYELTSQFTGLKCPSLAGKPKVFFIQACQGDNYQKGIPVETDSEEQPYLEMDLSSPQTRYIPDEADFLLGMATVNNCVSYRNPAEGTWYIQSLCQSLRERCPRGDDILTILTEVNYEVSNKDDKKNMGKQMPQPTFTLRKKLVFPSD
# UniProt P07333, whole entry, looked up: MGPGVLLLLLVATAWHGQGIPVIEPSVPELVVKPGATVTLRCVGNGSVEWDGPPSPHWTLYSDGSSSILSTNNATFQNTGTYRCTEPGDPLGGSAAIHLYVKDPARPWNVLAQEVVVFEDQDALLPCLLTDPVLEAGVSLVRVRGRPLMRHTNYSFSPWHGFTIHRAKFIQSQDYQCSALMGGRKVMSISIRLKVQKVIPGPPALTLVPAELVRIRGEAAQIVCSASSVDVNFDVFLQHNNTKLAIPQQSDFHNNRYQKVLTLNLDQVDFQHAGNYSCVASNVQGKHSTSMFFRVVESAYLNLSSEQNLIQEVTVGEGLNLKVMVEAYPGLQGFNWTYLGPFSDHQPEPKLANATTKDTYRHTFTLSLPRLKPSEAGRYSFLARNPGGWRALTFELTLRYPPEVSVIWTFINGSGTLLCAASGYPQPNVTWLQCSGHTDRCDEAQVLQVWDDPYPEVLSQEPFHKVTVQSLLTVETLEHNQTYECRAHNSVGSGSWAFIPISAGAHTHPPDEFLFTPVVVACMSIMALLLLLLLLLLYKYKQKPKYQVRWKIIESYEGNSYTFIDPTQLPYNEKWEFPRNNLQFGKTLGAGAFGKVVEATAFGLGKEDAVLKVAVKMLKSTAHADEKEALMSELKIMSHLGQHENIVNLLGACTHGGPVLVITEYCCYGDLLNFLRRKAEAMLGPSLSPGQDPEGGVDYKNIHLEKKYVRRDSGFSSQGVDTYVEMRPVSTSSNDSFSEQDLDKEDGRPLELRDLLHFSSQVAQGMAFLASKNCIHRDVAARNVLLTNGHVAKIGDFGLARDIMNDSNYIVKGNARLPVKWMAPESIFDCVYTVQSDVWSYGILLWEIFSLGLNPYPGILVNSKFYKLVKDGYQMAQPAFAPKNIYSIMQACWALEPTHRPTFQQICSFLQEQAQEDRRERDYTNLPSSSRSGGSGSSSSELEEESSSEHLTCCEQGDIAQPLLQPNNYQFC
# UniProt P11711: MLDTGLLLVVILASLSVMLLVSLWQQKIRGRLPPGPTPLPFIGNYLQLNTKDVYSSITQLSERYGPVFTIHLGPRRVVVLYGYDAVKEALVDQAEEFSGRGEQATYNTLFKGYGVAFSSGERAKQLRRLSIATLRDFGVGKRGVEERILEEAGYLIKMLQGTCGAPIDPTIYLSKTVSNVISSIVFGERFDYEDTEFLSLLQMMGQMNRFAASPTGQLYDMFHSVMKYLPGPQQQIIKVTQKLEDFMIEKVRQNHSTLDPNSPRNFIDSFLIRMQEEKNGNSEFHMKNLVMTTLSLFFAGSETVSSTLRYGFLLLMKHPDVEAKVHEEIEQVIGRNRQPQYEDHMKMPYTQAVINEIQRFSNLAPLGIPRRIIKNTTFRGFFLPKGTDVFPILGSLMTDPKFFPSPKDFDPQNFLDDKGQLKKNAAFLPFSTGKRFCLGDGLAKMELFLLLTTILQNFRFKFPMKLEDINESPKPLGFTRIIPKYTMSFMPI
# UniProt P15149: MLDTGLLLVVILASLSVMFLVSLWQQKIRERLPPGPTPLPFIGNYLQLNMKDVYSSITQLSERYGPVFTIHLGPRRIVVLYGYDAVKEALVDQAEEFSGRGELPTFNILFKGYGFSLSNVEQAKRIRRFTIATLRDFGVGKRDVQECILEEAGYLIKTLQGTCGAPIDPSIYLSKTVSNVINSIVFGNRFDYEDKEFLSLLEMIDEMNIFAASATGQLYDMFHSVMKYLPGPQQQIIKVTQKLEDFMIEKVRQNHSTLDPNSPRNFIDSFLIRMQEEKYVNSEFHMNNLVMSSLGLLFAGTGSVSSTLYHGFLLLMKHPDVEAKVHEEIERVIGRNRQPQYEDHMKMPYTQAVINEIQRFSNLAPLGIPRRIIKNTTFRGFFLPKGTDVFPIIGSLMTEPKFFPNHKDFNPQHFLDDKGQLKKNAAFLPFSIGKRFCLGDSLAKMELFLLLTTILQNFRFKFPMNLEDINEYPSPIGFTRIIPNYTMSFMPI
# UniProt P20814, whole entry, looked up: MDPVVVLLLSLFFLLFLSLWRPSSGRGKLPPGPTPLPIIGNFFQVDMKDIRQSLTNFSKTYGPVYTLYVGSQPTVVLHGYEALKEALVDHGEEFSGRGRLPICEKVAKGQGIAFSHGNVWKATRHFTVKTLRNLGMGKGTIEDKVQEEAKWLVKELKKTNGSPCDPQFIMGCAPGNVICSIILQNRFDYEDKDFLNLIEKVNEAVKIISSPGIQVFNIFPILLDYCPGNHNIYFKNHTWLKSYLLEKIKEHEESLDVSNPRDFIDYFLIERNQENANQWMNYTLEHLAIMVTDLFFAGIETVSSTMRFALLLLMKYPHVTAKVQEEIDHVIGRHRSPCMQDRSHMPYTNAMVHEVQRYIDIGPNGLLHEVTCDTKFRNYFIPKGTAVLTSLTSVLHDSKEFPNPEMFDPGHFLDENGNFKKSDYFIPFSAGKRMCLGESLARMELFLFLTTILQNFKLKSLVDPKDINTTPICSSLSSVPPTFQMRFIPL
# UniProt P10633: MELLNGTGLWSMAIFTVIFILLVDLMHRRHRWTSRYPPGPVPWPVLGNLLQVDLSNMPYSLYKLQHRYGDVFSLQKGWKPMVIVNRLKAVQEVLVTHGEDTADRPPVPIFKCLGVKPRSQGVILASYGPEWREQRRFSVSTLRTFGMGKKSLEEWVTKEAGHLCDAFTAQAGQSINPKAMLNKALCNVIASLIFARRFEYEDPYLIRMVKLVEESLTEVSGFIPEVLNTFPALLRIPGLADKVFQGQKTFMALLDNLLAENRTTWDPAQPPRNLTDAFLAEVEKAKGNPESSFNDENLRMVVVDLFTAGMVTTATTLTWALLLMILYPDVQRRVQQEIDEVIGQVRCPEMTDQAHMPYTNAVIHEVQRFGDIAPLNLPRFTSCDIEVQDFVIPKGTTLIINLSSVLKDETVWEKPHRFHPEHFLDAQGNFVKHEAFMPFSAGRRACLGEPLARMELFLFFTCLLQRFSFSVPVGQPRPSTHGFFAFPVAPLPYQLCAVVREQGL
# UniProt P10634: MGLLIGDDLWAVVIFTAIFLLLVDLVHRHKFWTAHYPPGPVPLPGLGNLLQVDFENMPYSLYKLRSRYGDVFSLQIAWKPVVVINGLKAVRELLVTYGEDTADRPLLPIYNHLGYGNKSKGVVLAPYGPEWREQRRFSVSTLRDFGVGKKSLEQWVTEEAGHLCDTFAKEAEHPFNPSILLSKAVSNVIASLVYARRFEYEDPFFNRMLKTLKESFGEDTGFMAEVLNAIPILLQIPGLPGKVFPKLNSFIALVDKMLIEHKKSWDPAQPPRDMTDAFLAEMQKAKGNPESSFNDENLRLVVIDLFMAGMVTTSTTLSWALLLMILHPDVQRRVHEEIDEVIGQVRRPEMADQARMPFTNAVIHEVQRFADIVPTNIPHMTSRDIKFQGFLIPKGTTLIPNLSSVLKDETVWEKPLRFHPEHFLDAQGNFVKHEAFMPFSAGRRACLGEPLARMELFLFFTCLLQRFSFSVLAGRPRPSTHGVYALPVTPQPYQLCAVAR
# UniProt P05183: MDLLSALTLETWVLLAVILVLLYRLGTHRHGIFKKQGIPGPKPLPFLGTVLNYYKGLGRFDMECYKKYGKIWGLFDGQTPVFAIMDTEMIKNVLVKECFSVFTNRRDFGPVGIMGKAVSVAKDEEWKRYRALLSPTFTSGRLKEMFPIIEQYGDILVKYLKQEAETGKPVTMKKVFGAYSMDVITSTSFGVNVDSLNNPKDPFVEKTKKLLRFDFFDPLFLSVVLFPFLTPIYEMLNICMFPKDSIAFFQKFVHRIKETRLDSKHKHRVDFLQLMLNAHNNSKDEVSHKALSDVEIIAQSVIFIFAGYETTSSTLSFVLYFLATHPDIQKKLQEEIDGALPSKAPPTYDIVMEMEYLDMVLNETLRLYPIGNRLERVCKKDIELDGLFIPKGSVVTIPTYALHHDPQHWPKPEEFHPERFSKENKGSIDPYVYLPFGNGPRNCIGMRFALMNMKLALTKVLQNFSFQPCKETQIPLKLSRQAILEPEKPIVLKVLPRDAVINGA
# UniProt P56817: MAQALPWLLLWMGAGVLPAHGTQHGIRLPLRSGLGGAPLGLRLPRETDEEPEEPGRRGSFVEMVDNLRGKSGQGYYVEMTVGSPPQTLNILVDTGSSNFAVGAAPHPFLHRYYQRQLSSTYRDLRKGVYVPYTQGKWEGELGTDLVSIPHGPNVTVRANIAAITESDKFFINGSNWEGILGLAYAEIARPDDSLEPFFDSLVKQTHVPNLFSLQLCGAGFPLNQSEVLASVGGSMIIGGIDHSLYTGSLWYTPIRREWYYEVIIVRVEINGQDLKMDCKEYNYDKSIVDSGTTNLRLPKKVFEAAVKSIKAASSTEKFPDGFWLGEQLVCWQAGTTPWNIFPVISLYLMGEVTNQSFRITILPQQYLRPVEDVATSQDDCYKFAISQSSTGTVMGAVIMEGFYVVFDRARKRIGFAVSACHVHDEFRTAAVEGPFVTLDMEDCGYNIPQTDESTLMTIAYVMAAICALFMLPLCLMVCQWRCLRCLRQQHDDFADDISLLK
# UniProt Q9HCS2: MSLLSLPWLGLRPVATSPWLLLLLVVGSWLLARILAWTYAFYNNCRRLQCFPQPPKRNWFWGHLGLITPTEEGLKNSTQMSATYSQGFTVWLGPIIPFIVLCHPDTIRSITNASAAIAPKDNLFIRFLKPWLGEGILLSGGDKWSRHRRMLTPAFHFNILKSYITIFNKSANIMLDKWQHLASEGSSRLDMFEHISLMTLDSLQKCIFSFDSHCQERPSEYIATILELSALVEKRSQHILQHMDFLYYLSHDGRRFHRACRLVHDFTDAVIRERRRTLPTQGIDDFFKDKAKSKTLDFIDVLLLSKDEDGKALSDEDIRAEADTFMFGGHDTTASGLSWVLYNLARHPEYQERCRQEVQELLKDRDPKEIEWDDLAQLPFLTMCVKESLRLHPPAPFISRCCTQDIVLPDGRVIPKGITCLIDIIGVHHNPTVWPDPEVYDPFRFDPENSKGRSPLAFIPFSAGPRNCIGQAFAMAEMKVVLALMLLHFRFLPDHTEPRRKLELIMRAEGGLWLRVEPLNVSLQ
# Legend:
# [1] = target: human Caspase 10 (CASP10), CASP10 (gene 843) (UniProt Q92851); experiment: NVS_ENZ_hCASP10: NovaScreen (NVS) Enzymatic Assay for human Caspase 10 (CASP10) (AID 2283133)
# Outline: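 Fluorescence-intensity enzyme read-out of E. coli-expressed CASP10 activity, 1 h after compound. Single-point duplicates at 25 uM preceded concentration-response testing (top 50 uM) of hits; inhibition expressed as signal loss versus DMSO.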
# [2] = target: human Aurora Kinase A - serine/threonine-protein Kinase 6 (AurA), AURKA (gene 6790) (UniProt O14965); experiment: NVS_ENZ_hAurA: NovaScreen (NVS) Enzymatic Assay for human Aurora Kinase A - serine/threonine-protein Kinase 6 (AurA) (AID 2283142)
# Outline: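 Recombinant human AurA activity read by fluorescence after mobility-shift separation of product from substrate; 1 hour incubation. Chemicals first run in duplicate at 25 uM, then concentration series to 50 uM if over threshold; fitted relative to DMSO.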
# [3] = target: human Caspase 8 (CASP8), CASP8 (gene 841) (UniProt Q14790); experiment: NVS_ENZ_hCASP8: NovaScreen (NVS) Enzymatic Assay for human Caspase 8 (CASP8) (AID 2283146)
# Outline: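 The primary screen tested compounds in duplicate at a single 25 uM concentration, with actives followed up in concentration series. Activity of recombinant (E. coli) protease was measured by fluorescence 1 h post-dose, as signal loss against DMSO.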
# [4] = target: human Casein Kinase 1-delta (CK1D), CSNK1D (gene 1453) (UniProt P48730); experiment: NVS_ENZ_hCK1D: NovaScreen (NVS) Enzymatic Assay for human Casein Kinase 1-delta (CK1D) (AID 2283148)
# Outline: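 Recombinant human CK1-delta, cell-free; fluorescent substrate with electrophoretic mobility-shift separation of product, read 1 h after dosing. Single 25 uM duplicate screen, then concentration-response up to 50 uM; loss of signal vs DMSO.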
# [5] = target: human Colony Stimulating Factor 1 Receptor (CSF1R), CSF1R (gene 1436) (UniProt P07333); experiment: NVS_ENZ_hCSF1R: NovaScreen (NVS) Enzymatic Assay for human Colony Stimulating Factor 1 Receptor (CSF1R) (AID 2283150)
# Outline: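 Compounds screened in duplicate at 25 uM, then concentration-response (top 50 uM) for those passing threshold such as 30% inhibition; recombinant CSF1R activity measured 1 h post-dosing via fluorescent substrate/product mobility-shift separation, loss of signal versus DMSO.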
# [6] = target: human Epidermal Growth Factor Receptor (EGFR), EGFR (gene 1956) (UniProt P00533); experiment: NVS_ENZ_hEGFR: NovaScreen (NVS) Enzymatic Assay for human Epidermal Growth Factor Receptor (EGFR) (AID 2283151)
# Outline: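 Cell-free kinase assay, fluorescence plus electrophoretic mobility shift separating substrate and product, read 1 hour after dosing; loss of signal vs DMSO. Duplicate screen at 25 uM, then concentration-response to 50 uM.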
# [7] = target: Cytochrome P450 2C19 (Homo sapiens) (UniProt P33261); experiment: NVS_ADME_hCYP2C19: NovaScreen (NVS) CYP450-related Enzyme Activity (ADME) Assay for human CYP2C19 (AID 2283113);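 as to AC50: potency for inhibition seen as loss of fluorescent signal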
# Outline: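 Recombinant insect-cell-expressed enzyme, fluorescent substrate, 1 h after chemical addition, fluorescence intensity. Baseline = acetonitrile vehicle; activity scored as signal loss. Primary HTS single concentration 10 uM, duplicate; actives retested in concentration series.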
# [8] = target: rat CYP2A1, Cyp2a1 (gene 24894) (UniProt P11711); experiment: NVS_ADME_rCYP2A1: NovaScreen (NVS) CYP450-related Enzyme Activity (ADME) Assay for rat CYP2A1 (AID 2283114; active = hit-call score of the fitted dose curve at least 0.9, where 1 is the maximum; inactive = score below 0.9)
# Outline: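 Cell-free fluorescence enzyme-activity read on recombinant rat CYP2A1, taken 0.75 h post-dosing. Compounds were screened in duplicate at 10 uM, then hits tested in concentration series (max 20 uM); inhibition scored relative to acetonitrile baseline.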
# [9] = target: rat CYP2A2, Cyp2a2 (gene 24895) (UniProt P15149); experiment: NVS_ADME_rCYP2A2: NovaScreen (NVS) CYP450-related Enzyme Activity (ADME) Assay for rat CYP2A2 (AID 2283116)
# Outline: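 Compounds first tested in duplicate at 10 uM, then in singleton concentration series up to 20 uM when over threshold. Activity of the recombinant enzyme read by fluorescence at 0.2 h, normalised to acetonitrile vehicle.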
# [10] = target: rat CYP2C11, Cyp2c11 (gene 29277) (UniProt P08683); experiment: NVS_ADME_rCYP2C11: NovaScreen (NVS) CYP450-related Enzyme Activity (ADME) Assay for rat CYP2C11 (AID 2283118)
# Outline: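 Screened first at 10 uM in duplicate, hits followed by concentration-response. Recombinant rat enzyme activity monitored by fluorescence 0.33 h post-dosing, normalised to acetonitrile negative control.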
# [11] = target: rat CYP2C12, Cyp2c12 (gene 25011) (UniProt P11510); experiment: NVS_ADME_rCYP2C12: NovaScreen (NVS) CYP450-related Enzyme Activity (ADME) Assay for rat CYP2C12 (AID 2283119)
# Outline: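 Fluorescent-substrate turnover by recombinant rat CYP2C12, measured at 0.5 h, normalized to acetonitrile vehicle. Chemicals screened first at a single 10 uM concentration in duplicate, with concentration series for actives.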
# rat CYP2C6, gene 293989 = experiment: NVS_ADME_rCYP2C6: NovaScreen (NVS) CYP450-related Enzyme Activity (ADME) Assay for rat CYP2C6 (AID 2283120)
# Outline: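 Compounds first tested in duplicate at 10 uM, hits (e.g. 30% inhibition) re-run in singleton dose series to a 20 uM top concentration. Enzyme activity of recombinant rat CYP2C6 measured via fluorescent substrate turnover after 1 h; acetonitrile baseline.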
# [12] = target: rat CYP2C13, Cyp2c13 (gene 171521) (UniProt P20814); experiment: NVS_ADME_rCYP2C13: NovaScreen (NVS) CYP450-related Enzyme Activity (ADME) Assay for rat CYP2C13 (AID 2283121)
# Outline: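 Inhibition is read as decreased fluorescent product formation, referenced to acetonitrile vehicle. Cell-free recombinant rat Cyp2c13 reaction ran 0.75 hour; compounds first at 10 uM in duplicate, then concentration series for actives.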
# [13] = target: rat CYP2D1, Cyp2d1 (gene 266684) (UniProt P10633); experiment: NVS_ADME_rCYP2D1: NovaScreen (NVS) CYP450-related Enzyme Activity (ADME) Assay for rat CYP2D1 (AID 2283122)
# Outline: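 Rat CYP2D1 enzyme activity measured by fluorescence intensity in a cell-free format, 0.75 h post-dosing, acetonitrile as negative control. Screening at 10 uM in duplicate, with actives followed in concentration series up to 20 uM.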
# [14] = target: rat CYP2D2, Cyp2d26 (gene 25053) (UniProt P10634); experiment: NVS_ADME_rCYP2D2: NovaScreen (NVS) CYP450-related Enzyme Activity (ADME) Assay for rat CYP2D2 (AID 2283124)
# Outline: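 Single-concentration duplicate testing at 10 uM, followed by concentration-response (top 20 uM) for chemicals passing threshold. Enzyme activity of the recombinant rat isoform measured by fluorescence after 0.75 h, acetonitrile as baseline.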
# rat CYP3A1, gene 25642 = experiment: NVS_ADME_rCYP3A1: NovaScreen (NVS) CYP450-related Enzyme Activity (ADME) Assay for rat CYP3A1 (AID 2283126)
# Outline: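 Compounds went first at 10 uM duplicate, then to series with 20 uM maximum. Fluorescence from substrate turnover by the recombinant enzyme was measured 0.5 h post-dosing, inhibition scored against acetonitrile vehicle.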
# [15] = target: rat CYP3A2, Cyp3a2 (gene 266682) (UniProt P05183); experiment: NVS_ADME_rCYP3A2: NovaScreen (NVS) CYP450-related Enzyme Activity (ADME) Assay for rat CYP3A2 (AID 2283128)
# Outline: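 Fluorescence readout of extracted rat CYP3A2 activity 0.5 h post-dose, acetonitrile as negative control. Single-point testing in duplicate at 10 uM, followed by concentration series to a 20 uM maximum for actives.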
# [16] = target: human Beta-secretase (BACE), BACE1 (gene 23621) (UniProt P56817); experiment: NVS_ENZ_hBACE: NovaScreen (NVS) Enzymatic Assay for human Beta-secretase (BACE) (AID 2283140);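 also: hits are inhibitors that reduce fluorescent substrate signal versus DMSO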
# Outline: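 Enzyme activity of SF9-produced BACE1 is measured cell-free by fluorescence, 1 hour post dosing, normalised to DMSO. Screening used 25 uM in duplicate, with concentration-response follow-up for actives.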
# [17] = target: human CYP4F12, CYP4F12 (gene 66002) (UniProt Q9HCS2); experiment: NVS_ADME_hCYP4F12: NovaScreen (NVS) CYP450-related Enzyme Activity (ADME) Assay for human CYP4F12 (AID 2283111)
# Outline: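 Recombinant enzyme with a fluorescent substrate, signal read at 0.5 h post-dose; activity loss analysed relative to acetonitrile. Compounds first run in duplicate at 10 uM, with follow-up concentration-response testing of actives.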
# rat CYP2B1, gene 24300 = experiment: NVS_ADME_rCYP2B1: NovaScreen (NVS) CYP450-related Enzyme Activity (ADME) Assay for rat CYP2B1 (AID 2283117)
structure (smiles),measurement,setting,value
Cc1cc([N+](=O)[O-])cc([N+](=O)[O-])c1O,outcome,[1],inactive
same,outcome,[2],inactive
same,outcome,[3],inactive
same,outcome,[4],inactive
same,outcome,[5],inactive
same,outcome,[6],inactive
CN(C(=O)Cc1cccc2occc12)[C@H]1CC[C@@]2(CCCO2)C[C@@H]1N1CCCC1,AC50,[7],active: 6.95 µM
same,outcome,[2],inactive
CC(C)OP(=S)(OC(C)C)SCCNS(=O)(=O)c1ccccc1,AC50,[7],active: 131 nM and active: 96.2 nM and active: 113 nM
same,AC50,[8],active: 539 nM and active: 495 nM and active: 456 nM
same,AC50,[9],active: 1.12 µM and active: 782 nM and active: 1.15 µM
same,AC50,[10],active: 326 nM and active: 351 nM and active: 296 nM
same,AC50,[11],active: 2.76 µM and active: 1.63 µM and active: 799 nM
same,AC50,"rat CYP2C6, gene 293989",active: 336 nM and active: 273 nM and active: 349 nM
same,AC50,[12],active: 2.05 µM and active: 2.61 µM
same,outcome,[12],inactive
same,AC50,[13],active: 1.45 µM and active: 832 nM and active: 1.27 µM
same,AC50,[14],active: 376 nM and active: 278 nM and active: 274 nM
same,AC50,"rat CYP3A1, gene 25642",active: 266 nM and active: 270 nM and active: 242 nM
same,AC50,[15],active: 218 nM and active: 182 nM and active: 198 nM
same,AC50,[16],active: 8.47 µM and active: 10.3 µM and active: 11 µM
O=C1C2CC=CCC2C(=O)N1SC(Cl)(Cl)C(Cl)Cl (stereo not given),AC50,[17],active: 128 nM
same,outcome,[7],inactive
same,AC50,"rat CYP2B1, gene 24300",active: 204 nM
same,outcome,[11],inactive

# From PubChem BioAssay (EPA / NIEHS)
